The data set has as its system HepG2 cells. Description: Cytotoxicity toward HepG2 cells (methylene blue staining). The method, then: Briefly, HepG2 cells are seeded at 4×10^4/well on a 96-well plate in 100 μL growth medium and incubated for 24 h at 37° C. The medium is removed and the cells are washed with PBS. Treatments of fruit extracts or antioxidant compounds in 100 μL treatment medium (Williams' Medium E supplemented with 2 mM L-glutamine and 10 mM Hepes) are applied to the cells and the plates are incubated at 37° C. for 24 h. The treatment medium is removed and the cells are washed with PBS. A volume of 50 μL/well methylene blue staining solution (98% HBSS, 0.67% glutaraldehyde, 0.6% methylene blue) is applied to each well and the plate is incubated at 37° C. for 1 h.
Excess dye is removed by immersing the plate in fresh deionized water until the water appears clear. […] The absorbance is read at 570 nm with blank subtraction using, for example a MRX II DYNEX spectrophotometer (DYNEX Inc., Chantilly, Va.). Concentrations of pure compounds or fruit extracts that decrease the absorbance by more than 10% when compared to the control are considered to be cytotoxic.
Cytotoxicity was measured using the method of Oliver et al. (31) with modifications by our laboratory (32). […] The absorbance was read at 570 nm with blank subtraction using the MRX II DYNEX spectrophotometer (DYNEX Inc., Chantilly, Va.). […]
The median cytotoxic concentration (CC50) was calculated for each fruit. […]

A value given as a limit tells only on which side of the number the result lay.

The values below come from patent US20110313672A1, “CELLULAR ANTIOXIDANT ACTIVITY (CAA) ASSAY” (CORNELL UNIVERSITY, priority 2007, published 2011).

As a reminder, the CC50 is the concentration that lowers cell viability or growth by half. As for (+)-catechin, the “Cytotoxicity (cytotoxic concentration)” value (Example 1, dose at which the cell number is reduced by more than 10% after 24 h treatment) was over 500 µM. Further, where the note is “read-out: cytotoxicity CC50, Example 3, median cytotoxic concentration, 24 h”, the CC50 was over 1000 µM.
